Measurements taken from patent US9145392B2, “Imidazole amines as modulators of kinase activity” (Merck Patent GmbH, priority 2011, dated 2015).

Protein sequences, listed by entry. Tags and fused reporters are not part of them. Lines headed by an entry give the natural chain unless they say otherwise; changes in a name come on top.
UniProt P31749: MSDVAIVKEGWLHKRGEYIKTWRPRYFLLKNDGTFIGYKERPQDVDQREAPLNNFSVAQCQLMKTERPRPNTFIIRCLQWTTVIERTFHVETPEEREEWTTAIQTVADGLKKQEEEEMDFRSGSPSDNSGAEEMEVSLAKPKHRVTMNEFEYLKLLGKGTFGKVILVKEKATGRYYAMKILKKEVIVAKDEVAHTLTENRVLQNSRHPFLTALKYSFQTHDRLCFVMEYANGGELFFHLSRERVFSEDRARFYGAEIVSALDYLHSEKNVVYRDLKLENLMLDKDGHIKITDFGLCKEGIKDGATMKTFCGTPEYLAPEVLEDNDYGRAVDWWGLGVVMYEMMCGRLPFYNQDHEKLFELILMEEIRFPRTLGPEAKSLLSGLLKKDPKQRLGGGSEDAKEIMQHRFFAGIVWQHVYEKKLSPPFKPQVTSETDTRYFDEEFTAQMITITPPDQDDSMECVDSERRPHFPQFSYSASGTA

Molecular target: His-AKT (Full Length) (Homo sapiens (Human), UniProt P31749)
Test: AKT enzyme assay
Assay type: biochemical
Protocol: A TTP Mosquito liquid handling instrument is used to place 125n1 of the appropriate concentration of inhibitor in 100% DMSO (for a dose response curve calculation) into each well of a 384-well plate.
The reaction is incubated for 90 min at 25 C, and then stopped by the addition of 70 μl of Stop buffer (100 mM HEPES pH 7.5, 0.015% Brij-35, 10 mM EDTA (Sigma, E7889)).
The plate is read on a Caliper LC 3000 in an Off-Chip mobility shift assay format, using the following parameters for a 12-sipper chip: screening pressure −2.3 psi, upstream voltage −500, and downstream voltage −3000. These conditions cause unphosphorylated substrate and phosphorylated product peptide to resolve as separate peaks allowing direct measurement of percentage of conversion of substrate to product. The percent conversion can be plotted against concentration of inhibitor to produce a sigmoidal dose response curve, from which an IC50 can be calculated.

IC50 [nM]	Structure (SMILES)
2.1	CCc1c(N)ncnc1N1CCC(c2nc(-c3ccnc(C(F)(F)F)c3)cn2CCNC)CC1 [Compound 171, 5-ethyl-6-(4-(1-(2-(methylamino)ethyl)-4-(2-(trifluoromethyl)pyridin-4-yl)-1H-imidazol-2-yl)piperidin-1-yl)pyrimidin-4-amine]
2.1	CCOc1c(N)ncnc1N1CCC(c2nc(-c3ccc(F)c(Cl)c3)cn2CCN2CCCC2)CC1 [Compound 289]
